57 compounds from published antibiotic growth screens (doi:10.1038/s41589-023-01349-8) can be followed below.

Molecules are shown by their SMILES. The list shows a part of the results.

The test system of this experiment is A. baumannii ATCC 17978. Nature of the experiment: relative growth (fraction of control); higher = less inhibition. The following applies: 50 µM.
Take `COCC(=O)N[C@H]1C=C[C@@H](CC(=O)N2CCCCC2)O[C@@H]1CO`: the relative growth is 1.1.

For the compound `CCN(CC)C(=O)c1cccnc1`, the relative growth was determined as 0.849.

In turn, `CCN(CC)C(=O)c1cccc(C)c1` returned a relative growth of 0.959.

Compound `O=C(C[C@@H]1CC[C@H](NS(=O)(=O)c2ccc(F)cc2)[C@H](CO)O1)N1CCC(Cc2ccccc2)CC1` yielded a relative growth of 1.04.

`CCCN(CCC)S(=O)(=O)c1ccc(C(=O)O)cc1`: the relative growth turned out to be 1.01.

Turning to `C[C@H]1O[C@H](O[C@H]2[C@H](O)[C@@H](O)[C@@H](O[C@H]3[C@H](O)[C@@H](O)C(O)O[C@@H]3CO)O[C@@H]2CO)[C@H](O)[C@@H](O)[C@@H]1N[C@H]1C=C(CO)[C@@H](O)[C@H](O)[C@H]1O` (some centres not stated), the relative growth was 0.961.

`O=C(C[C@@H]1CC[C@H](NC(=O)Nc2ccc3c(c2)OCO3)[C@H](CO)O1)NCCCN1CCOCC1`: the relative growth was 1.01.

Turning to `CN(C)CC(=O)N[C@H]1CC[C@H](CC(=O)NCCN2CCCCC2)O[C@H]1CO`, the relative growth came out at 1.05.

For the compound `CC(C)[Si](C#C[Si](C(C)C)(C(C)C)C(C)C)(O[C@H](C)c1cn([C@H](CO)Cc2ccccc2)nn1)C(C)C`, the relative growth was 0.894.

`CCNC(=O)C[C@@H]1C=C[C@@H](NC(=O)C2CC2)[C@H](CO)O1` showed a relative growth of 0.887.

`N#CCCn1c(CC(N)=O)nc2ccccc21`: the relative growth was found to be 1.06.

On to `COc1ccccc1CNC(=O)C[C@H]1C[C@@H]2c3cc(NC(=O)C4CCOCC4)ccc3O[C@@H]2[C@@H](CO)O1`, for which the relative growth was found to be 1.05.

As for `C[C@@H]1CN([C@@H](C)CO)C(=O)c2cc(C#Cc3cccnc3)cnc2O[C@H]1CN(C)S(C)(=O)=O`, the relative growth worked out at 1.08.

For the compound `C[C@@H](Sc1nc2ncnc(N)c2[nH]1)C(=O)O`, the relative growth was found to be 0.921.

In the case of `COc1ccc(C(=O)NCC(=O)O)cc1`, the relative growth was found to be 1.03.

`C[C@@H]1CN([C@@H](C)CO)S(=O)(=O)c2ccc(C#Cc3cccnc3)cc2O[C@H]1CN(C)CC1CCOCC1` returned a relative growth of 0.78.

The compound `O=C(O)CSC(=S)N1CCOCC1` yielded a relative growth of 0.963.

In turn, `C[C@@H]1CN([C@@H](C)CO)S(=O)(=O)c2ccc(C#Cc3ccc(F)cc3)cc2O[C@H]1CN(C)C(=O)c1ccccn1` had a relative growth of 0.766.

The compound `O=C(O)[C@H]1CCCN1C(=O)c1cccnc1` gave a relative growth of 0.998.

`CN(C)CCCCNC(=O)[C@H]1C[C@H]2C(=O)N3CCC[C@H]3C(=O)N2[C@H]1c1cccc(OCCO)c1`: the relative growth came to 0.915.

Take `O=C(C[C@@H]1CC[C@@H]2[C@H](COC[C@H](O)CN2S(=O)(=O)c2ccc(Cl)cc2)O1)N[C@H]1CCN(Cc2ccccc2)C1`: the relative growth was determined as 0.963.

Take `O=C([O-])CCC(=O)OC[C@@H](NC(=O)C(Cl)Cl)[C@H](O)c1ccc([N+](=O)[O-])cc1.[Na+]`: the relative growth worked out at 1.01.

Compound `O=C(O)CCCCC(=O)O` showed a relative growth of 1.39.

Turning to `COCC(=O)N1C[C@H](C)[C@@H](OC)CN(C)C(=O)c2cc(NC(=O)c3ccc(OC)cc3)ccc2OC[C@@H]1C`, the relative growth came to 1.18.

`Cc1ccc(-c2nc(-c3ccc(Cl)cc3)cs2)cc1F` returned a relative growth of 0.968.

For the compound `CCCNC(=O)N[C@H]1C=C[C@H](CC(=O)N2CCN(C)CC2)O[C@@H]1CO`, the relative growth stood at 1.15.

In turn, `C=CCCCCCCCCCCCc1ccco1` showed a relative growth of 1.12.

`COc1cccc(-c2ccc3c(c2)O[C@@H](CN(C)C(=O)C2CC2)[C@H](C)CN([C@H](C)CO)S3(=O)=O)c1` yielded a relative growth of 0.852.

Turning to `O=C(C[C@H]1C=C[C@@H](NC(=O)c2ccc(F)cc2)[C@H](CO)O1)NCc1ccncn1`, the relative growth amounted to 1.07.

`C[C@@H]1CN([C@H](C)CO)C(=O)c2cc(C#Cc3cccc(F)c3)cnc2O[C@H]1CN(C)C(=O)C1CCOCC1` showed a relative growth of 0.894.

As for `Cc1ccc(S[C@]2(C(=O)NCC(C)C)CC(=O)N(Cc3cc(C(F)(F)F)cc(C(F)(F)F)c3)[C@@H]2c2ccc(CO)cc2I)cc1`, the relative growth was 0.895.

Regarding `CCN(CC)C(=O)N1CCN(CCC#N)CC1`, the relative growth came to 1.09.

Consider `Nc1ncnc2c1ncn2CCO`, for which the relative growth came to 0.951.

Consider `COc1ccc2c(c1)/C(=N\O)C(=O)N2`, for which the relative growth is 0.964.

In turn, `CCCNC(=O)Nc1ccc2c(c1)OC[C@H](C)N(Cc1ccc(-c3ccccn3)cc1)C[C@@H](C)[C@@H](OC)CN(C)C2=O` displayed a relative growth of 0.899.

`O=C(CCCCCC(=O)N/N=C/[C@@H](O)[C@@H](O)[C@H](O)[C@H](O)CO)NO` yielded a relative growth of 0.939.

For the compound `CCCCCN(CCCCC)C(=O)C(CCC(=O)[O-])NC(=O)c1ccc(Cl)c(Cl)c1.[Na+]` (configuration not stated), the relative growth was found to be 1.03.

The compound `CO[C@@H]1CN(C)C(=O)c2ccc(NC(=O)Nc3ccc(Cl)cc3)cc2OC[C@H](C)N(C(=O)Nc2c(C)noc2C)C[C@H]1C` came in with a relative growth of 1.05.

Consider `CNC(=O)[C@H]1Cc2ccccc2N1C(=O)COC`, for which the relative growth stood at 0.905.

`C[C@H]1CN([C@@H](C)CO)S(=O)(=O)c2ccc(C#CC(C)(C)O)cc2O[C@H]1CN(C)C(=O)CN(C)C`: the relative growth came out at 1.02.

In turn, `Cc1ccc(NC(=O)CC(C)C)cc1` had a relative growth of 0.96.

For the compound `CN1CCN(C(=O)C[C@@H]2CC[C@H]3[C@@H](COC[C@H](O)CN3Cc3ccc4c(c3)OCO4)O2)CC1`, the relative growth came out at 1.

As for `O=C1c2ccccc2[C@](Cc2ccccc2I)(C(=O)O)[C@H](c2ccc(CO)cc2)N1C1CCCCC1`, the relative growth was 0.969.

As to `O=C(C[C@H]1CC[C@H]2[C@@H](COC[C@H](O)CN2S(=O)(=O)c2ccccc2)O1)N1CCOCC1`, the relative growth turned out to be 1.05.

Regarding `Nc1c(C(=O)c2ccccc2)no[n+]1[O-]`, the relative growth was 0.969.

The compound `COC(CNC(=O)C(=O)NC[C@H]1OCCN1C(=O)c1ccc2c(c1)OCO2)OC` showed a relative growth of 0.917.

For `CSc1nc(=O)cc(O)[nH]1`, the relative growth is 0.83.

`O=C(C[C@H]1C=C[C@@H](NS(=O)(=O)c2ccc(F)cc2)[C@@H](CO)O1)NCCN1CCCCC1` gave a relative growth of 0.668.

`NS(=O)(=O)c1cc2c(cc1Cl)NC(C(Cl)Cl)NS2(=O)=O` (configuration not stated) returned a relative growth of 1.11.

Regarding `C[C@H]1CN([C@@H](C)CO)S(=O)(=O)c2ccc(-c3ccc(C#N)cc3)cc2O[C@@H]1CN(C)C(=O)CN(C)C`, the relative growth turned out to be 1.02.

Compound `CC(C)=CCC[C@@H](C)CC=O` returned a relative growth of 0.944.

Take `CC12CCC3c4ccc(O)cc4CCC3C1C[C@H](O)[C@@H]2O` (some centres not stated): the relative growth was 0.972.

`C=CCNC1=NS(=O)(=O)c2ccccc21` showed a relative growth of 0.976.

On to `CO[C@@H]1CN(C)C(=O)c2cc(NS(C)(=O)=O)ccc2OC[C@@H](C)N(C(=O)CN(C)C)C[C@@H]1C`, for which the relative growth was found to be 1.11.

In turn, `O=C(N[C@@H]1C=C[C@H](CC(=O)N2CCOCC2)O[C@H]1CO)c1ccc2c(c1)OCO2` had a relative growth of 1.01.

Compound `O=C(O)Cn1nnc(-c2ccccc2)n1` had a relative growth of 1.06.

For the compound `COCCOC(=O)N1C(=O)[C@@]2(c3cc(C#CC4=CCCCC4)ccc31)[C@H](C(=O)NC[C@H](O)c1ccccc1)[C@H]1C(=O)O[C@H](c3ccccc3)[C@H](c3ccccc3)N1[C@@H]2c1ccc(O)cc1`, the relative growth is 1.03.
